Experimental findings from article PMC8511083 (European journal of medicinal chemistry, 2021) are described below.

The subject of data set [1] is A375 xenograft tumors. In words: A375 subcutaneous melanoma xenograft model in NSG mice. The conditions noted are these: 20 mg/kg and 40 mg/kg IP, 15 days. Format: in vivo, mouse.
The test system of data set [2] is OVCAR8 orthotopic ovarian tumors. Kind of data set: Orthotopic OVCAR8 ovarian cancer mouse model. It counts as in vivo. The note with it: 20 mg/kg then 40 mg/kg IP, during the treatment period.

As for `Oc1c(CN2CCCCC2)cc(Cn2ncc(-c3ccc(C(F)(F)F)cc3)n2)c2cccnc12` [Compound 12b, 7-(piperidin-1-ylmethyl)-5-((4-(4-(trifluoromethyl)phenyl)-2H-1,2,3-triazol-2-yl)methyl)quinolin-8-ol], in data set [1] (3 times/week, vs vehicle), the tumor growth entry is on record as “significantly inhibited tumor growth in a dose-dependent manner”. In addition, the body weight entry is “no significant body weight loss” in data set [1] and “no severe weight loss” in data set [2].
